# AlphaSeq binding of Ab-14 heavy chain variants to a spike HR2 peptide

Source: Li et al. 2023 (doi:10.1038/s41467-023-39022-2), MIT Lincoln Laboratory and A-Alpha Bio; data file from the FLAb repository.

Antigen: PDVDLGDISGINAS, a 14-residue peptide of the SARS-CoV-2 spike HR2 region.

The variants keep the light chain, the linker and the frameworks of Ab-14 (scFv order VH, three GGGGS repeats, VL).
VH: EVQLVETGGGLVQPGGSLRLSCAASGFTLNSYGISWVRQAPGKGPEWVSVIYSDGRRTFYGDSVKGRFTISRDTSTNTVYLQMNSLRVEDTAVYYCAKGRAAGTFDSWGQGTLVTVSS
VL: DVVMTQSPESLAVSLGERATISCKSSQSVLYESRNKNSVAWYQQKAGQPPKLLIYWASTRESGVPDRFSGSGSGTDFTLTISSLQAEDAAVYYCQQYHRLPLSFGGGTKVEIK

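Phage display of a naive human antibody library on the peptide gave the parent. This is the validation round: designs drawn from the data on random variants, tested in the same kind of assay. Several design methods are mixed in this list. In AlphaSeq, yeast of one mating type display the scFv and yeast of the other type display the target. Binding brings cells together so that they mate, and sequencing counts the barcode pairs among the diploids. Scores were corrected for input abundance and mapped to Kd with protein pairs of known affinity run in the same pool. Mating was done six times.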

Sequences are complete VH domains. This list holds designs with at most six substitutions. Each Kd is an estimate from the mating assay, the geometric mean of the replicates in which the pair was seen; lower is stronger. Where no diploid with the target was found in any replicate, the entry reads "nd": below detection, most likely a poor binder, though not proof of it. Three control strains display no target. For all heavy chain designs, 1% of the pairings with them gave a signal, with a median of 120 nM and one signal in twenty below 7.0 nM, so weak values seen in few replicates may be background. Also given: how often the same scFv was detected with the empty control strains.

For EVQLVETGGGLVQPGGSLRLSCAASGFSLNSYGISWVRQAPGKGPEWVSVIYSDGRRTFYSDSVKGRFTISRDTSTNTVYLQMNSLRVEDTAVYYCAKGTAAGTFDSWGQGTLVTVSS, the assay gave 980 pM (6 of 6 replicates; controls 0 of 18).
For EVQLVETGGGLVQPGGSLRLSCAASGFELNSYGISWVRQAPGKGPEWVSVIYSDGRRTFYADSVKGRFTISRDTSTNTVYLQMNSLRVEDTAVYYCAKGKEAGTFDTWGQGTLVTVSS, the assay gave 730 pM (6 of 6 replicates; controls 0 of 18).
For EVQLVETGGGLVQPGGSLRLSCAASGFTLNSYGISWVRQAPGKGPEWVSVIYSDGRRTFYGDSVKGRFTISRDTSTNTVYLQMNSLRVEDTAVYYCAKGKEAGTFDSWGQGTLVTVSS, the assay gave 2.5 nM (6 of 6 replicates; controls 0 of 18).
For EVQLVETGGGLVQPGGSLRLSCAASGFTLNSYGISWVRQAPGKGPEWVSVIYSDGRRTFYGDSVKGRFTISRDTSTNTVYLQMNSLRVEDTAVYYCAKGRAKGTFDTWGQGTLVTVSS, the assay gave 11 nM (6 of 6 replicates; controls 0 of 18).
For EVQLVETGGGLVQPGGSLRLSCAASGFTLNNYGISWVRQAPGKGPEWVSVIYSDGMRTFYGDSVKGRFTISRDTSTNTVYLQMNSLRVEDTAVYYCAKGWTAGTFWSWGQGTLVTVSS, the assay gave nd (0 of 6 replicates; controls 0 of 18).
For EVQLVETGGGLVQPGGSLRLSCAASGFTLNEYGISWVRQAPGKGPEWVSVIYSDGRITFYTDSVKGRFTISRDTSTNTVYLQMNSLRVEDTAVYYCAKGRFAGTFFSWGQGTLVTVSS, the assay gave nd (0 of 6 replicates; controls 0 of 18).
For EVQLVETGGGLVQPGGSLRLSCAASGFTLDSYGISWVRQAPGKGPEWVSVIYADGRRTFYGDSVKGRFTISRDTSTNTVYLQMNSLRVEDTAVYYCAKGRAAGTFDVWGQGTLVTVSS, the assay gave 650 pM (6 of 6 replicates; controls 0 of 18).
For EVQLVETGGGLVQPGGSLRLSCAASGFWLNDYGISWVRQAPGKGPEWVSVIYSDGRRTFYHDSVKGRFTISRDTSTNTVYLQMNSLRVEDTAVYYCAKGRIAGTFDSWGQGTLVTVSS, the assay gave 17 nM (6 of 6 replicates; controls 0 of 18).
For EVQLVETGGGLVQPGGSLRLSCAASGFTLNEYGISWVRQAPGKGPEWVSVIYSDGRRTFYGDVVKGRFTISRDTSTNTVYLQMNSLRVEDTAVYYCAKGRAGVTFDDWGQGTLVTVSS, the assay gave nd (0 of 6 replicates; controls 0 of 18).
For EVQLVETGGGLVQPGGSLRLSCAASGFTLNSHGISWVRQAPGKGPEWVSVIYSDGFRTFYGDSVVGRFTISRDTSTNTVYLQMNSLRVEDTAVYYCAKGRAAGTFDSWGQGTLVTVSS, the assay gave nd (0 of 6 replicates; controls 0 of 18).
For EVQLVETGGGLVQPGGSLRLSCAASGFKLASYGISWVRQAPGKGPEWVSVIYSDGRRTFYQDSVKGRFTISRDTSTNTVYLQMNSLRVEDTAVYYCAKERVAGTFDSWGQGTLVTVSS, the assay gave 88 nM (1 of 6 replicates; controls 0 of 18).
For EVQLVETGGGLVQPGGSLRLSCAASGFTLNEYGISWVRQAPGKGPEWVSVIYSDGRRTMYQDSVKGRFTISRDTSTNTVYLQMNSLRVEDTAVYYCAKGRCAGTFDSWGQGTLVTVSS, the assay gave 66 nM (3 of 6 replicates; controls 0 of 18).
For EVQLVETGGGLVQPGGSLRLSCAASGFQLNSYGISWVRQAPGKGPEWVSVIYSDGRRTFYGDDVKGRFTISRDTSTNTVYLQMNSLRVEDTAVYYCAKGRTAGTFDSWGQGTLVTVSS, the assay gave 20 nM (6 of 6 replicates; controls 0 of 18).
For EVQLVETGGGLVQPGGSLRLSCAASGFDLNSYGISWVRQAPGKGPEWVSVIYSDGRRTFYGDSVKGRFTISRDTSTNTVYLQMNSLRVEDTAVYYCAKGREAGTFDMWGQGTLVTVSS, the assay gave 1.3 nM (6 of 6 replicates; controls 0 of 18).
For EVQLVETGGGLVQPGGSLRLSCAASGFVLNEYGISWVRQAPGKGPEWVSVIYSDGRRTFYADSVKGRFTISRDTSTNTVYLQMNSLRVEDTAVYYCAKGKAAGTFDSWGQGTLVTVSS, the assay gave 4.9 nM (5 of 6 replicates; controls 0 of 18).
For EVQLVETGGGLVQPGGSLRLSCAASGFTLNDYGISWVRQAPGKGPEWVSVIYSDGRRTFYGDSVKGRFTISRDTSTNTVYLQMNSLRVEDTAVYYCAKGRVAGTFDIWGQGTLVTVSS, the assay gave 5.4 nM (6 of 6 replicates; controls 1 of 18).
For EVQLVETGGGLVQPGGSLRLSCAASGFTLNSYGSSWVRQAPGKGPEWVSVIYSDGRRTFYGDSVKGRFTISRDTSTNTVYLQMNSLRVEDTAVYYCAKGRAGGTFDSWGQGTLVTVSS, the assay gave nd (0 of 6 replicates; controls 0 of 18).
For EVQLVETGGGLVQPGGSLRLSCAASGFSLNSYGISWVRQAPGKGPEWVSVIYSDGRRSFYGDSVKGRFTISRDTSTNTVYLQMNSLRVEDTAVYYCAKGEAAGTFDSWGQGTLVTVSS, the assay gave 9.4 nM (6 of 6 replicates; controls 0 of 18).

Top 3 of the variants detected in all replicates, tightest first:

| VH | Kd | detected | empty controls |
|---|---|---|---|
| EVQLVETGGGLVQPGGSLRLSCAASGFTLDSYGISWVRQAPGKGPEWVSVIYADGRRTFYGDSVKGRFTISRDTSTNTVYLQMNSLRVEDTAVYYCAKGRAAGTFDVWGQGTLVTVSS | 650 pM | 6 of 6 | 0 of 18 |
| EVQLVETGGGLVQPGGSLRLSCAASGFELNSYGISWVRQAPGKGPEWVSVIYSDGRRTFYADSVKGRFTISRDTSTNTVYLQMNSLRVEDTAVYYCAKGKEAGTFDTWGQGTLVTVSS | 730 pM | 6 of 6 | 0 of 18 |
| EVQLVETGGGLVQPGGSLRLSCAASGFSLNSYGISWVRQAPGKGPEWVSVIYSDGRRTFYSDSVKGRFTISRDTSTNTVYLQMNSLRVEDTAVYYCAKGTAAGTFDSWGQGTLVTVSS | 980 pM | 6 of 6 | 0 of 18 |

Values of this round are not directly comparable with the first-round values of the same sequences. The authors' rule: three or more of the six replicates give a measured affinity, fewer mean a poor binder.